pIC50: −log10 of the molar value.
How the values were obtained:
[1] = molecular target: T1, human E-Selectin-IgG-chimera (Homo sapiens, UniProt P16581); experiment: Sialyl Lewis X Tyrosine Sulfate Assay (sLex TSA), E-selectin; assay type: binding; settings: sLexTSA
T1 construct: fused on or other part: human IgG Fc part, captured on the plate by goat anti human Fc antibody; a tag, no second protein
T1 sequence (P16581 22-175 limits assumed): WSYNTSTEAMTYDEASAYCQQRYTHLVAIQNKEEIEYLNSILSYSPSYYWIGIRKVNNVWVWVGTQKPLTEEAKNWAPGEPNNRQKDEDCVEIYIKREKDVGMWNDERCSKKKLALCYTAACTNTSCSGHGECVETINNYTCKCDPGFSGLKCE
Method: (§1) Sialyl Lewis^X Tyrosine Sulfate Assay (sLe^x TSA):
(§2) Compounds of the present invention are assayed on a molecular level for their ability to inhibit the binding of P-, L-, or E-selectin chimeric molecules to sLe^x and tyrosinesulfate residues linked to a polymeric matrix as a PSGL-1 substitute. Selected IC50-values are determined.
(§3) Microtiter plates are coated overnight in carbonate buffer pH9.6 with goat anti human Fc mAB (10 μg/ml). After washing in assay buffer (25 mM 4-(2-hydroxyethyl)-1-piperazineethanesulfonic acid (HEPES), 150 mM NaCl, 1 mM CaCl2 pH7.4) and blocking (3% bovine serum albumin (BSA) in assay buffer) plates are incubated for 2 h at 37° C. with human P-Selectin-IgG-chimera (0.61 nM respectively 150 ng/mL) or human L-Selectin-IgG-chimera (0.61 nM respectively 89 ng/mL) or human E-Selectin-IgG-chimera (0.61 nM respectively 131 ng/mL). 5 μl of sLe^x-tyrosine sulfate polyacrylamide (1 mg/ml) carrying 15% sLe^x, 10% Tyrosine-sulfate and 5% biotin is complexed with 20 μl Streptavidin-Peroxidase solution (1 mg/ml) and 25 μl assay buffer without CaCl2. […] Bound sLe^x-Tyrosine sulfate ligand complex is determined by measuring optical density at 450 nm vs. 620 nm in a Fusion alpha-FP reader (sold from Packard Bioscience, Dreieich, Germany).

[2] = molecular target: T2, human P-Selectin-IgG-chimera (Homo sapiens, UniProt P16109); experiment: Sialyl Lewis X Tyrosine Sulfate Assay (sLex TSA), P-selectin; assay type: binding; settings: sLexTSA
T2 sequence (P16109 42-771 limits assumed): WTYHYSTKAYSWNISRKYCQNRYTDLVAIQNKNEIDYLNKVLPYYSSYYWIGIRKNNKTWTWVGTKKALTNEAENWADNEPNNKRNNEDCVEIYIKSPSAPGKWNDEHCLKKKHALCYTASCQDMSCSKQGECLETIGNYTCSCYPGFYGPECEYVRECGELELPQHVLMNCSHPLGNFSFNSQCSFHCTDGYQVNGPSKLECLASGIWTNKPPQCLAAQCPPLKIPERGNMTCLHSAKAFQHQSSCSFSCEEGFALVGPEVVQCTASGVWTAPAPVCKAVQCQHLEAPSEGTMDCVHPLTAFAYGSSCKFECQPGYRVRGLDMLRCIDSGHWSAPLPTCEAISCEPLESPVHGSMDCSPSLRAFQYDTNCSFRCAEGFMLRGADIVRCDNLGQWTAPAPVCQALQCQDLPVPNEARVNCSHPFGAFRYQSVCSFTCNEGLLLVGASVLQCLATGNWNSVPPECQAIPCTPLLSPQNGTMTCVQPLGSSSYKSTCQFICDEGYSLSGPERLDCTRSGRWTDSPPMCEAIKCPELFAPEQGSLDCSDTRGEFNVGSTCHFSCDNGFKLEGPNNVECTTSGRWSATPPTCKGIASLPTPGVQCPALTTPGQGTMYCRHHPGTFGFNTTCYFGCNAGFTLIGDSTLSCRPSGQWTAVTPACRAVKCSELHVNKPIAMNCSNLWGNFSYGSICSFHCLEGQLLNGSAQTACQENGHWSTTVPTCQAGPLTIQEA
Method: as §1, §2, §3

pIC50 [1]: < 3.30 | pIC50 [2]: 4.02
Structure (SMILES): O=C(O)Cc1cccc(-c2cc(CCCCCCc3ccc(O[C@H]4O[C@H](CO)[C@@H](O)[C@H](O)[C@@H]4O)c(-c4cccc(CC(=O)O)c4)c3)ccc2O[C@H]2O[C@H](CO)[C@@H](O)[C@H](O)[C@@H]2O)c1 [Bimosiamose, bimosiamose, reference compound]

— patent US20090030015A1, “NOVEL MULTI-CYCLIC COMPOUNDS” (REVOTAR BIOPHARMACEUTICALS AG, priority 2005, published 2009)
